Patent US7238213B2, “Cell-based assays employing voltage and calcium dyes” (priority 2001, dated 2007)

The chains behind the UniProt entries cited, without tags or fusion partners. Residues count along the entry.
UniProt P47871, 26-477, species assumed: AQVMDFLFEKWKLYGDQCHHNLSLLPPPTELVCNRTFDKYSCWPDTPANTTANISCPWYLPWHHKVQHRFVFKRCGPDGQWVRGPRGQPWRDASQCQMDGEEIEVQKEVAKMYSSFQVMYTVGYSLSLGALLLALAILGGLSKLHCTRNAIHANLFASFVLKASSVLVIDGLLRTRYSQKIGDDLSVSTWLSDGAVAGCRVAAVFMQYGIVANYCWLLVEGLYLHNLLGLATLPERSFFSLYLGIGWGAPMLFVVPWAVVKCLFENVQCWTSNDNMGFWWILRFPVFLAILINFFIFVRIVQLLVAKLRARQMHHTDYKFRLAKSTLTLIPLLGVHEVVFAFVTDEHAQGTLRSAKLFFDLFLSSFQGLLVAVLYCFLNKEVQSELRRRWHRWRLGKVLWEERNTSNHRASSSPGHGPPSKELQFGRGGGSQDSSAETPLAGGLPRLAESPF

Biological target: T1, GCGR (Homo sapiens, UniProt P47871)
T1 construct: expressed in transfected cells
Test: CNG channel voltage dye assay with quencher dyes, cell line ASC0089 (GCGR)
Type: cell-based

glucagon
maximal response Fmax/Fb: 4.6 and 4.2 and 4.9 and 4

Several values for one entry are separate records, joined by “and”; a condition that tells them apart may be missing. Equal values may be shown once.
